Key:
[1] = target: T1, ATP-sensitive inward rectifier potassium channel 1 (Homo sapiens, UniProt P48048); experiment: Inhibition of ROMK (unknown origin)
T1 sequence (P48048 whole entry): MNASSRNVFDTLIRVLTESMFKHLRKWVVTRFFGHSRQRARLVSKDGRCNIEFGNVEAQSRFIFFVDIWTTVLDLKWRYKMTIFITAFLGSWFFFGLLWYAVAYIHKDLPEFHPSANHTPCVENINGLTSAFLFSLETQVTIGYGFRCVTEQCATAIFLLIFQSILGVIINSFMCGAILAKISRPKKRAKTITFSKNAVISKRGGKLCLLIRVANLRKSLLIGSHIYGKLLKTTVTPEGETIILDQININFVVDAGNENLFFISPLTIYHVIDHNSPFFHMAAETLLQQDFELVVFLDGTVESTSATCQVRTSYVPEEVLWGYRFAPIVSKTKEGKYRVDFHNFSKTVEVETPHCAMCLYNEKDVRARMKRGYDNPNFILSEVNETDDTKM

[2] = target: T2, Kir3.1/Kir3.4 (Homo sapiens, UniProt P48544+P48549); experiment: Inhibition GIRK1/4 (unknown origin); assay type: protein-complex assay
T2 sequence (P48549 whole entry): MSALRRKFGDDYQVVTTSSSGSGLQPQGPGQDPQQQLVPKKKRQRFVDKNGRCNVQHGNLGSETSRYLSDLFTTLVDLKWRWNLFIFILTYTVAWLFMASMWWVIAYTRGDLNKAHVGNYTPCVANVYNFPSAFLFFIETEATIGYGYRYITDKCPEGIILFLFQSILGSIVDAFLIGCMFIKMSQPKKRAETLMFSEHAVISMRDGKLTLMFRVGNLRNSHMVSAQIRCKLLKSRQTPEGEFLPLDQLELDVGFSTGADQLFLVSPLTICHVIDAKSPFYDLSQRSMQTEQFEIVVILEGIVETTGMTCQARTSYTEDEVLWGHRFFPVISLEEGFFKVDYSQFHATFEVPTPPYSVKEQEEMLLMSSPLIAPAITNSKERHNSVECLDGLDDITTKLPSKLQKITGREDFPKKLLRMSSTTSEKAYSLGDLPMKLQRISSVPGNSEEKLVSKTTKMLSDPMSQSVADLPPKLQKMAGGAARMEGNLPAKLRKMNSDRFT
T2 sequence (P48544 whole entry): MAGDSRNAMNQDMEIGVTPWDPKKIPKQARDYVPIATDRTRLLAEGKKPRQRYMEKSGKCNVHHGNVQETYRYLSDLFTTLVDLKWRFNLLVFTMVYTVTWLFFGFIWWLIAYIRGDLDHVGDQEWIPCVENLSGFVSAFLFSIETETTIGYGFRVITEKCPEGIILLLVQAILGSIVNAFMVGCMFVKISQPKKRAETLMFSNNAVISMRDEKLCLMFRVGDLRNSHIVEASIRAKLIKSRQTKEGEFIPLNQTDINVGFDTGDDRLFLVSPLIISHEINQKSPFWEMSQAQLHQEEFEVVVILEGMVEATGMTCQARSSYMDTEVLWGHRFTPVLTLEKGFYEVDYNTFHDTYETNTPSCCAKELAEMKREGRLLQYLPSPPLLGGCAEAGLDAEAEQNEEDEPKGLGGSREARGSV

## CC[C@H](C)[C@@H]1NC(=O)[C@H](CCCNC(=N)N)NC(=O)[C@H](CC(N)=O)NC(=O)[C@@H]2CSSC[C@@H](C(=O)NCC(=O)N[C@@H](CCCCN)C(=O)N[C@@H](CCCCN)C(N)=O)NC(=O)[C@H](CCCCN)NC(=O)[C@H](CCCCN)NC(=O)[C@H](Cc3c[nH]c4ccccc34)NC(=O)[C@H](CSSC[C@H](NC(=O)[C@H](CC(C)C)NC(=O)[C@H](C)N)C(=O)N[C@@H](CC(N)=O)C(=O)N2)NC(=O)[C@H](CCSC)NC(=O)[C@H](Cc2c[nH]cn2)NC(=O)[C@@H]2CCCN2C(=O)[C@H]([C@@H](C)CC)NC(=O)[C@H]([C@@H](C)CC)NC1=O
[1]
  Ki: 2 nM
[2]
  Ki: 8.2 nM
